Experimental findings from PubChem BioAssay AID720709 (National Center for Advancing Translational Sciences (NCATS), 2013) are described below.

By UniProt entry, the sequences of proteins in these tests, tags left out.
UniProt O95398, whole entry: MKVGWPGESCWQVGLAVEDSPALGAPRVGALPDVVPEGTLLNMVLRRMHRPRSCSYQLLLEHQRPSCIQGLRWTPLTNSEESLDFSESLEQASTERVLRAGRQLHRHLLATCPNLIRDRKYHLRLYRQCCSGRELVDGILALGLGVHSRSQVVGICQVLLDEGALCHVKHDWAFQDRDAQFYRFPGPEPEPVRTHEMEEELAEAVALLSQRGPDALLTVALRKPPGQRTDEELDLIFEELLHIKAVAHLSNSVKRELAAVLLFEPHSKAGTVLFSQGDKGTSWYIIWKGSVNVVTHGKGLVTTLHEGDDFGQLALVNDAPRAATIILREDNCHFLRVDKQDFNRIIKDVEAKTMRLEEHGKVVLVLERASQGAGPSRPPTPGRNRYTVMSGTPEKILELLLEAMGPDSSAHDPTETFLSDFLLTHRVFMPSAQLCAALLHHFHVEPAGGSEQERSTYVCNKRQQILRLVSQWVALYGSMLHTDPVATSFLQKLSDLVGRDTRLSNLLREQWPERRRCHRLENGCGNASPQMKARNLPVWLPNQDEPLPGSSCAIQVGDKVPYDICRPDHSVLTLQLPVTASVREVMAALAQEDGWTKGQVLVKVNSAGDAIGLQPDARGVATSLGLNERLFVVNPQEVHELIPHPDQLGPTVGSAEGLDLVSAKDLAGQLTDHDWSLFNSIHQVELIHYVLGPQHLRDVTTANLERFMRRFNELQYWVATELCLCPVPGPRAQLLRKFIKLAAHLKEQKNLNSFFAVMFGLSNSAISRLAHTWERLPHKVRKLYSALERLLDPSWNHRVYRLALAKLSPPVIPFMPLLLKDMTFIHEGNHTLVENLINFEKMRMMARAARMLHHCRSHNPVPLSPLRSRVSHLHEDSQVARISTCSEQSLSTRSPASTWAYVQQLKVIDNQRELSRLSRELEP

Each structure is given as a SMILES string. The list shows a part of the results, in another mix than the full data. Inconclusive results are not listed. The source made the active and inactive calls. Calls come from the whole dose curve; as a rule, active = well fitted inhibition curve with a large enough effect; inconclusive = small, poorly fitted or top-dose-only effect; inactive = no such curve, though single readings can be large or run the other way.

This assay addresses Rap guanine nucleotide exchange factor 3 (Homo sapiens) (UniProt O95398). Nature of the assay: qHTS for Antagonist of cAMP-regulated guanine nucleotide exchange factor 3 (EPAC1): primary screen.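 Note: plate controls were vehicle for no effect and positive control for full effect; nearly all actives have a fitted effect of over 50% in size.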 The following applies: EPAC1 GEF assay, Rap1b-BODIPY-GDP exchange fluorescence; at 115 µM (top of the series). An excerpt: In multi-cellular eukaryotic organisms, the effects of cAMP are transduced by two ubiquitously-expressed intracellular cAMP receptors, the classic protein kinase A/cAMP-dependent protein kinase (PKA/cAPK) and the more recently discovered exchange protein directly activated by cAMP/cAMP-regulated guanine nucleotide exchange factor (EPAC/cAMP-GEF). Both PKA and EPAC are ubiquitously expressed in all tissues, and an increase in intracellular cAMP levels will lead to the activation of both PKA and EPAC. […] This qHTS will be used to screen the Molecular Libraries Small Molecule Repository (MLSMR) as a concentration-titration series using the NCGC unique quantitative screening (qHTS) platform to find inhibitors for EPAC1. […] Inhibitors are identified by monitoring the change in fluorescence signal as the exchanged free BODIPY-GDP has a reduced fluorescence compared to Rap1-bound BODIPY-GDP. […]
Briefly, three uL of reagents (100 nM EPAC1, 250 nM RAP1B-BODIPY-GDP, 50 uM GDP) were dispensed into a 1536-well Greiner black solid-bottom medium binding assay plate. […] The assay plates were read at 5 minute intervals for 30 minutes in the ViewLux plate reader using 480nm excitation and 540nm emission filters. […]
Take `CCC(=O)N(c1ccccc1)C1(COC)CCN(CCc2cccs2)CC1`: the activity change, negative = inhibition is inactive: -3.81%. To `CCC(=O)N(c1ccccc1)C1(COC)CCN(CCn2nnn(CC)c2=O)CC1` belongs inactive: -4.02%.
